Molecular target: T1, P2X purinoceptor 7 (Rattus norvegicus, UniProt Q64663)
T1 sequence (Q64663 whole entry): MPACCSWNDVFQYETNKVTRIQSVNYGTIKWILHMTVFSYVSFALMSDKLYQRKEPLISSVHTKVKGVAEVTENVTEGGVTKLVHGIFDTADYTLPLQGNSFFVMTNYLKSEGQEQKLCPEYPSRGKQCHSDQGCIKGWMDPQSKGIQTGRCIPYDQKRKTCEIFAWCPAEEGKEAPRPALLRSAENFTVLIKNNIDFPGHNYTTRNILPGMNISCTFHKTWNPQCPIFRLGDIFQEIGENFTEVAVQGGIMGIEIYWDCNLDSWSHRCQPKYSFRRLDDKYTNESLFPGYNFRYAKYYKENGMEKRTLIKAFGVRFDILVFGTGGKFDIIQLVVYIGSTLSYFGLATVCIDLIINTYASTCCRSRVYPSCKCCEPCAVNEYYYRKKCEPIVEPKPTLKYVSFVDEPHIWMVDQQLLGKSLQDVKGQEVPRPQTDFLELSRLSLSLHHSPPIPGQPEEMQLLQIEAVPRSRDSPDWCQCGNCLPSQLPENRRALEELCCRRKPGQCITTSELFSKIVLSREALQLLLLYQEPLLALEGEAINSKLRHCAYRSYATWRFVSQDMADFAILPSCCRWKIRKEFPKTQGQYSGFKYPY
Assay: Antagonist activity at rat recombinant P2X7 receptor assessed as inhibition of calcium flux by FLIPR assay
Assay type: functional

- IC50: 18 nM
Structure (SMILES): COc1ccc(CC(=O)NC(N/C(=N/C#N)Nc2cccc3ncccc23)C(C)(C)C)cc1OC (stereo unspecified)
